Earlier results on one substance are cited in publication PMC3783652.

By UniProt entry, the sequences of proteins in these tests, tags left out. Residues count along the entry.
UniProt P48061, 22-89: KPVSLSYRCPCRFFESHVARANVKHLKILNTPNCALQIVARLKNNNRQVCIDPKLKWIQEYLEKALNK

One may read the Kd as the constant that tells how readily two partners part at equilibrium.

For this data set, the target named is CXCL12 (Homo sapiens) (UniProt P48061).

CXCL12 (from UniProt P48061): the Kd was 140 µM.
